Literature values as cited in article PMC7828495, “Synthesis, Stability, and Antidiabetic Activity Evaluation of (−)-Epigallocatechin Gallate (EGCG) Palmitate Derived from Natural Tea Polyphenols” (Molecules, 2021).

System: Mouse
Conditions: in vivo; cited from earlier work

Question: For `CN(C)c1ccncc1` [4-dimethylaminopyridine (DMAP), 4-dimethylaminopyridine], which LD50 is on record?
Answer: LD50 250 mg/kg, medium toxicity
